# Laboratory results reported in PubChem BioAssay AID602363 (Broad Institute, 2012).
# “And” between values parts separate entries of the source, which are not always exact repeats. Equal values may be shown once. In all, about 350,000 compounds went through this assay and about 450 (0.13%) were called active.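 How the source made its calls: active means replicate mean at a twofold rise or more (about +100% in these data); inactive means the rest.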 This excerpt belongs to a sample that is enriched for actives. The source holds several records for some structures; these can differ, active in one and inactive in another.
# Assay: modulators of yeast start codon fidelity, primary screen, whole organism, S. cerevisiae, single point, plate reader (AID 602363)
# Conditions: S. cerevisiae UUG-firefly luciferase reporter, luminescence/redox ratio; at 18.7 µM; stronger effect = higher value
row,Compound,activity score
1,O=C(C[C@@H]1C[C@H]2c3cc(NC(=O)NC4CCCCC4)ccc3O[C@H]2[C@H](CO)O1)NCc1ccncc1,1.45% (inactive)
2,CCCN1C[C@H](C)[C@H](OC)CN(C)C(=O)c2cc(NC(=O)C3CCOCC3)ccc2OC[C@@H]1C,7.64% (inactive)
3,C[C@H](CO)N1C[C@H](C)[C@@H](CN(C)Cc2ccc(Cl)c(Cl)c2)Oc2ccc(NC(=O)Nc3ccc(C(F)(F)F)cc3)cc2CC1=O,-6.41% (inactive)
4,COc1ccc(S(=O)(=O)N(C)C[C@@H]2OCCCC[C@@H](C)Oc3ccc(NC(=O)c4ccccc4)cc3C(=O)N([C@@H](C)CO)C[C@H]2C)cc1,-7.34% (inactive)
5,CO[C@H]1CN(C)C(=O)c2cc(NC(=O)Nc3cccc(F)c3)ccc2OC[C@H](C)N(C(C)=O)C[C@H]1C,2.41% (inactive)
6,CCCc1cn(CC[C@@H]2CC[C@@H](NS(=O)(=O)c3ccccc3Cl)[C@@H](CO)O2)nn1,-13.1% (inactive)
7,CN1C[C@@H]2[C@H](c3ccccc31)[C@@H](CO)N2C(=O)Nc1ccccc1,-3.49% (inactive)
8,C[C@@H]1CN([C@H](C)CO)C(=O)c2cc(NC(=O)c3ccncc3)ccc2O[C@H]1CN(C)C(=O)Nc1ccc(C(F)(F)F)cc1,-1.07% (inactive)
9,CCC(=O)N1C[C@@H](C)[C@H](OC)CN(C)C(=O)c2ccc(NC(=O)Nc3ccccc3)cc2OC[C@@H]1C,40.8% (inactive)
10,C[C@H]1CCCCO[C@H](CN(C)C(=O)NC2CCCCC2)[C@@H](C)CN([C@@H](C)CO)C(=O)c2cc(NC(=O)Nc3ccc4c(c3)OCO4)ccc2O1,-4.52% (inactive)
11,C[C@H]1CCCCO[C@H](CN(C)Cc2ccc(C(F)(F)F)cc2)[C@@H](C)CN([C@@H](C)CO)C(=O)c2cc(NC(=O)C3CCCCC3)ccc2O1,13.7% (inactive)
12,CC1CCC(NC(=O)C2c3ccccc3C(=O)N2Cc2ccc3c(c2)OCO3)CC1 (configuration not stated),619% (active)
13,CCc1ccc(CN2C(=O)c3ccccc3C2C(=O)NCC2CCCO2)cc1 (configuration not stated),-17.4% (inactive)
14,O=C(Nc1ccc(Cl)cc1)C1c2cccc[n+]2CC(=O)N1Cc1ccc2c(c1)OCO2 (configuration not stated),-9.17% (inactive)
15,COc1ccc(S(=O)(=O)Nc2ccc3c(c2)CC(=O)N([C@H](C)CO)C[C@@H](C)[C@H](CN(C)S(=O)(=O)c2c(C)noc2C)O3)cc1,-0.184% (inactive)
16,N#C[C@@H]1[C@H](c2ccc(C#Cc3cccc(F)c3)cc2)[C@@H](CO)N1C(=O)C1CCCC1,-38.1% (inactive)
17,CN(C)CC(=O)N[C@@H]1CC[C@H](CC(=O)NCc2ccc(Cl)cc2)O[C@H]1CO,-7.2% (inactive)
18,O=C(NCC[C@@H]1CC[C@H](NC(=O)C2CC2)[C@@H](CO)O1)c1cc(Cl)cc(Cl)c1,4.52% (inactive)
19,C[C@@H]1CN([C@H](C)CO)C(=O)c2cc(-c3ccc(C#N)cc3)cnc2O[C@@H]1CN(C)CC1CC1,-0.028% (inactive)
20,CO[C@H]1CN(C)C(=O)c2cc(NS(C)(=O)=O)ccc2OC[C@@H](C)N(Cc2ccccc2)C[C@@H]1C,1.29% (inactive)
21,CC(=O)Nc1ccccc1-c1cn(CC(=O)N2CCOCC2)nn1,127% (active)
22,CC(=O)Nc1ccccc1OC(=O)N1CCOCC1,-18.2% (inactive)
23,CCOC(=O)c1ccccc1NC(=O)COC(=O)CCC(=O)N1CCOCC1,19.5% (inactive)
24,C[C@H](CO)N1C[C@H](C)[C@H](CN(C)Cc2ccc(Cl)c(Cl)c2)OCCCC[C@H](C)Oc2ccc(NC(=O)NC3CCCCC3)cc2C1=O,-1.13% (inactive)
25,CCOCN(C(=O)Cn1c(C(C)O)nc2ccccc21)c1c(C)cccc1CC (configuration not stated),-13.4% (inactive)
26,CCc1cccc(C)c1N(C(=O)Cn1c(CO)nc2ccccc21)C(C)COC (configuration not stated),593% (active)

row,Compound,activity score
1,Cc1ccccc1OC(=O)Cn1c(C(F)(F)F)nc2ccccc21,-13% (inactive)
2,O=C(COc1ccc(Cl)cc1)NCc1nnc(SCC(=O)NCC2CCCO2)o1 (configuration not stated),199% (active)
3,COc1ccc2c(C)cc(SCC(=O)NCC3CCCO3)nc2c1 (configuration not stated),-4.78% (inactive)
4,COc1cc(C(=O)NCc2nnc(SCC(=O)c3ccc(Cl)cc3)o2)cc(OC)c1OC,-3.27% (inactive)
5,O=S(=O)(N[C@@H]1CC[C@@H](CCn2cc(-c3ccccn3)nn2)O[C@@H]1CO)c1cccc(Cl)c1,-16.7% (inactive)
6,C[C@@H]1CN([C@@H](C)CO)C(=O)c2cccc(NC(=O)Nc3ccc4c(c3)OCO4)c2O[C@@H]1CN(C)C(=O)Nc1ccc(F)cc1,-5.75% (inactive)
7,CS(=O)(=O)Nc1ccc2c(c1)[C@H]1C[C@@H](CC(=O)N3CCOCC3)O[C@@H](CO)[C@H]1O2,-23.5% (inactive)
8,C[C@H](CO)N1C[C@H](C)[C@@H](CN(C)S(C)(=O)=O)Oc2cc(C#CC3CC3)ccc2S1(=O)=O,13.1% (inactive)
9,O=C(NC(=S)Nc1ccccc1N1CCCCC1)c1ccc(F)cc1,-15.2% (inactive)
10,O=C(Nc1ccccc1N1CCCC1)c1ccc2ccccc2c1,-12.9% (inactive)
11,c1ccc(-n2cccc2)c(N2CCCCC2)c1,101% (active)
12,C[C@@H]1CCCCO[C@H](CN(C)Cc2ccccc2)[C@@H](C)CN([C@@H](C)CO)C(=O)c2cc(NC(=O)Nc3ccc(F)cc3)ccc2O1,33.7% (inactive)
13,C[C@H](CO)N1C[C@H](C)[C@@H](CN(C)C)Oc2c(NC(=O)Nc3ccc(F)cc3)cccc2C1=O,17.5% (inactive)
14,CC(C)C#Cc1ccc2c(c1)O[C@H](CN(C)Cc1ccccn1)[C@H](C)CN([C@H](C)CO)S2(=O)=O,-7.68% (inactive)
15,CO[C@H]1CN(C)C(=O)c2cc(NC(=O)C3CCCCC3)ccc2OC[C@H](C)N(C(=O)c2ccccc2)C[C@H]1C,-6.56% (inactive)
16,C[C@H](CO)N1C[C@H](C)[C@H](CN(C)S(=O)(=O)c2cn(C)cn2)Oc2c(NC(=O)C3CCOCC3)cccc2C1=O,-12.8% (inactive)
17,COc1ccc(NC(=O)N(C)C[C@H]2OCCCC[C@@H](C)Oc3ccc(NC(=O)NC4CCCCC4)cc3C(=O)N([C@H](C)CO)C[C@H]2C)cc1,21.6% (inactive)
18,COc1ccc(NC(=O)N(C)C[C@@H]2OCCCC[C@@H](C)Oc3ccc(NC(=O)NC4CCCCC4)cc3C(=O)N([C@H](C)CO)C[C@@H]2C)cc1,2.02% (inactive)
19,COc1ccc(NC(=O)N(C)C[C@H]2OCCCC[C@@H](C)Oc3ccc(NC(=O)NC4CCCCC4)cc3C(=O)N([C@@H](C)CO)C[C@H]2C)cc1,107% (active)
20,C[C@@H]1CN([C@H](C)CO)C(=O)c2cc(C#CC3CCCC3)cnc2O[C@H]1CN(C)C(=O)C1CC1,-6.27% (inactive)
21,C[C@@H]1CN([C@H](C)CO)C(=O)Cc2cc(NS(=O)(=O)c3ccc(Cl)cc3)ccc2O[C@H]1CN(C)S(=O)(=O)c1cccs1,-8.01% (inactive)
22,O=C(Cc1ccncc1)NCC[C@@H]1CC[C@H](NC(=O)Nc2ccc(Cl)cc2)[C@@H](CO)O1,34.2% (inactive)
23,Cc1ccc(C(=O)N/C(=C\c2cn(C)c3ccccc23)C(=O)N2CCN(C)CC2)cc1,0.501% (inactive)
24,CN1CCN(C(=O)/C(=C\c2cccs2)NC(=O)c2cccs2)CC1,0.022% (active)
25,CC1CCN(C(=O)/C(=C\c2ccccc2)NC(=O)c2ccccc2)CC1,-8.7% (inactive)
26,CCNC(=O)C[C@@H]1CC[C@@H]2[C@H](COc3ccc(NS(=O)(=O)c4ccccc4C)cc3C(=O)N2C)O1,-8.72% (inactive)

row,Compound,activity score
1,O=C(C[C@@H]1C=C[C@H](NC(=O)c2ccc3c(c2)OCO3)[C@H](CO)O1)NCc1ccc(Oc2ccccc2)cc1,8.13% (inactive)
2,Cc1noc(C)c1S(=O)(=O)N(C)C[C@@H]1OCCCC[C@H](C)Oc2ccc(NC(=O)NC(C)C)cc2C(=O)N([C@H](C)CO)C[C@@H]1C,27% (inactive)
3,CC(C)C#Cc1cnc2c(c1)C(=O)N([C@@H](C)CO)C[C@@H](C)[C@@H](CN(C)C(=O)c1cccc(F)c1)O2,0.693% (inactive)
4,C[C@@H]1CCCCO[C@@H](CN(C)C(=O)C2CCCCC2)[C@H](C)CN([C@H](C)CO)C(=O)c2cc(NC(=O)CCC(F)(F)F)ccc2O1,21.1% (inactive)
5,COc1ccccc1CNC(=O)C[C@@H]1CC[C@H](NC(=O)CN(C)C)[C@@H](CO)O1,-14.1% (inactive)
6,COc1ccc(NC(=O)Nc2ccc3c(c2)C(=O)N([C@@H](C)CO)C[C@@H](C)[C@H](CN(C)C(=O)CCC(F)(F)F)OCCCC[C@@H](C)O3)cc1,5.29% (inactive)
7,COc1cccc(-c2ccc3c(c2)O[C@H](CN(C)C(=O)c2ccccc2F)[C@@H](C)CN([C@@H](C)CO)S3(=O)=O)c1,0.848% (inactive)
8,CCCNC(=O)[C@@H]1[C@@H](CO)[C@@H]2Cn3c(ccc(-c4cccc(OC)c4)c3=O)[C@H]1N2C(=O)NCCC,4.04% (inactive)
9,C[C@H]1CN([C@@H](C)CO)C(=O)Cc2cc(NS(=O)(=O)c3ccc(Cl)cc3)ccc2O[C@H]1CN(C)S(C)(=O)=O,-4.94% (inactive)
10,COc1cc(-c2c(-c3ccc4c(c3)OCO4)noc2C)ccc1F,-5.42% (inactive)
11,Cc1onc(-c2ccc(Cl)cc2)c1-c1ccnn1S(=O)(=O)c1ccc(Cl)cc1,174% (active)
12,Cn1nc(-c2ccccc2)c(-c2nc(-c3ccc(Cl)cc3)no2)c1Cl,-23.8% (inactive)
13,C[C@H]1CN([C@@H](C)CO)S(=O)(=O)c2ccc(Br)cc2O[C@H]1CN(C)C(=O)C1CC1,11.3% (inactive)
14,CO[C@@H]1CN(C)C(=O)c2cc(NC(C)=O)ccc2OC[C@H](C)N(C(=O)Cc2ccccn2)C[C@@H]1C,-3.54% (inactive)
15,C[C@@H]1CN([C@@H](C)CO)C(=O)c2cc(NC(=O)c3ccncc3)ccc2O[C@H]1CN(C)S(=O)(=O)c1ccc(Cl)cc1,0.708% (inactive)
16,C[C@H]1CN([C@@H](C)CO)C(=O)c2cc(-c3ccncc3)cnc2O[C@@H]1CN(C)C(=O)C1CCCCC1,-11.6% (inactive)
17,C[C@@H]1CN([C@H](C)CO)C(=O)c2cc(Br)cnc2O[C@@H]1CN(C)C(=O)C1CC1,-8.5% (inactive)
18,C[C@@H]1CN([C@@H](C)CO)C(=O)c2cc(Br)cnc2O[C@@H]1CN(C)C(=O)C1CCCCC1,137% (active) and -1.46% (inactive)
19,CCC(=O)N(C)C[C@H]1Oc2cc(-c3cccc(C#N)c3)ccc2S(=O)(=O)N([C@@H](C)CO)C[C@@H]1C,12.2% (inactive)
20,CCS(=O)(=O)Nc1ccc2c(c1)C(=O)N(C)[C@H]1CC[C@H](CC(=O)Nc3ccccc3)O[C@@H]1CO2,1.74% (inactive)
21,CC(C)NC(=O)N[C@H]1CC[C@@H](CCNC(=O)C2CCC2)O[C@@H]1CO,-11.4% (inactive)
22,COc1ccccc1-c1ccc([C@@H]2[C@@H](CO)N3CCCCN(S(=O)(=O)c4cn(C)cn4)C[C@H]23)cc1,-0.721% (inactive)
23,COc1ccc(NC(=O)N(C)C[C@@H]2Oc3ccc(NC(=O)Cn4cnnn4)cc3C(=O)N([C@H](C)CO)C[C@@H]2C)cc1,2.52% (inactive)
24,O=C(N[C@H]1CC[C@H](CCNS(=O)(=O)c2ccc(F)cc2)O[C@H]1CO)c1cccnc1,-1.19% (inactive)
25,C[C@H]1CCCCO[C@@H](CN(C)Cc2ccc3c(c2)OCO3)[C@@H](C)CN([C@@H](C)CO)C(=O)c2cc(NC(=O)Nc3ccc(F)cc3)ccc2O1,18.3% (inactive)
